Only a part is listed here, and it is no random draw. Activity calls are given as the source filed them.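 Rule for the calls: active = mean replicate inhibition of at least 30%, or all replicates individually reaching that 30% level; inactive = mean below 30% and not every replicate reaching it.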

Chains of the proteins cited; added tags and fusions are not shown. Lines headed by an entry give the natural chain unless they say otherwise; changes in a name come on top.
UniProt Q9NZ08: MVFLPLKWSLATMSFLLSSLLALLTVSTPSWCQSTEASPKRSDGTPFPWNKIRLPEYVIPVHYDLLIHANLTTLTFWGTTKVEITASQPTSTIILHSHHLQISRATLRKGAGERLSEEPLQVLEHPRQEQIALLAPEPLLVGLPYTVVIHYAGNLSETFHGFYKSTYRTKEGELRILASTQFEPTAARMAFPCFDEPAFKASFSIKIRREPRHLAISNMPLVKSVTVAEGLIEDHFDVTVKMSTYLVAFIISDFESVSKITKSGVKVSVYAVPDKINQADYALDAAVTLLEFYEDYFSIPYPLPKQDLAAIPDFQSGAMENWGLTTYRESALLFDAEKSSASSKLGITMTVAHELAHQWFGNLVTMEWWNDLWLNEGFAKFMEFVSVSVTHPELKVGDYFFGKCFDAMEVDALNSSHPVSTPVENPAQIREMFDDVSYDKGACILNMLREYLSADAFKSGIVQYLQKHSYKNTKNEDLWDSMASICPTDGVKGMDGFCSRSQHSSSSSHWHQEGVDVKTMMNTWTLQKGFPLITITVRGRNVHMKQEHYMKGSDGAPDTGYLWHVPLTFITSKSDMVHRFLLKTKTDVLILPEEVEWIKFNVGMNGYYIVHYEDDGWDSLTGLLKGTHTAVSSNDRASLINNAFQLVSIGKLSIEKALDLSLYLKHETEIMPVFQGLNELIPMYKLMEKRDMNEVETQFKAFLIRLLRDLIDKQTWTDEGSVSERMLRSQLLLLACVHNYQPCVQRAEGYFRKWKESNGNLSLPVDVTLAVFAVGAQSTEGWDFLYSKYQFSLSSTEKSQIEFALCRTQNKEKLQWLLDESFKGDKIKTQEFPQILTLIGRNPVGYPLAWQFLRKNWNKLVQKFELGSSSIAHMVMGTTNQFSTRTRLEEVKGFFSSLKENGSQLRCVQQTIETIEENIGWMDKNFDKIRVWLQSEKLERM

This assay concerns the target Endoplasmic reticulum aminopeptidase 1 (Homo sapiens) (UniProt Q9NZ08). Nature of the assay: inhibition of ERAP1 peptide trimming enzyme – biochemical, single point, plate reader, primary screen (AID 652197).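 Note: 0% = neutral control wells and 100% = L-leucinethiol positive control wells.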 Particulars: recombinant ERAP1, Leu-AMC fluorescence, 60 min; at 10.7 µM; hits give high values.
The inhibition is the share of the control response that was lost under treatment. On to `O=c1ccc2ccc(O)cc2o1`, for which the inhibition is active: 100%.
